The record followed here is BindingDB's records for PubMed 10565829 (Loughborough University, 1999).

Chains of the proteins cited; added tags and fusions are not shown.
UniProt P79291, whole entry: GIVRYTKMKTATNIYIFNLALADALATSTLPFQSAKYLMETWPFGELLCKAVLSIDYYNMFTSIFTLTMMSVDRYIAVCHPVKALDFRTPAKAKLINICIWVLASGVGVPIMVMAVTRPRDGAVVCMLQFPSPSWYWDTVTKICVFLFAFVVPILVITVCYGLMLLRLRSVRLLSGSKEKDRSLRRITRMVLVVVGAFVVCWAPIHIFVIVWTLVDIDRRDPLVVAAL

The test addresses Delta-type opioid receptor (Sus scrofa, UniProt P79291).

pKi: −log10 of the molar value.

One may read the pKi as −log10 of the Ki, conventionally taken in molar units. High values mean a low Ki, low ones a high Ki. In turn, `CO[C@@]12CC[C@@]3(C[C@@H]1[C@@](C)(O)C(C)(C)C)[C@H]1Cc4ccc(O)c5c4[C@@]3(CCN1CC1CC1)[C@H]2O5` [BUPRENORPHINE] gave a negative-log Ki (pKi) of 8.89.
